The source of these data is US20190339292.

In data set [1] the test system is Human Amyloid 45 fragment (Aβ45).
For data set [2], the system named is Aβ42.
In data set [3] the test system is human wild type APPC99-3xFLAG substrate.
For data set [4], the system named is Aβ43.
Data set [5] deals with T43I (T714I) mutant APPC99-3xFLAG substrate.
The subject of data set [6] is Human Amyloid 46 fragment (Aβ46).
Data set [7] has as its system Notch-based (Notch-3xFLAG) substrate.
In data set [8] the test system is V46I (V717I) mutant APPC99-3xFLAG substrate.
In data set [9] the test system is V46F (V717F) mutant APPC99-3xFLAG substrate.
For data set [10], the system named is I45F (I716F) mutant APPC99-3xFLAG substrate.

For the substance “E280A-PSEN1 mutant γ-secretase complex (PSEN1/APH1A)”, the Tm (° C.) of Aβ42 generation (carboxypeptidase-like activity) in data set [1] was 48.8 °C. The Tm (° C.) of Aβ38 generation (carboxypeptidase-like activity) in data set [2] is 45 °C. Further, the Tm (° C.) of AICD-3XFLAG production (endopeptidase activity) in data set [3] stood at 56.6 °C. Further, the Tm (° C.) of Aβ40 generation (carboxypeptidase-like activity) in [4] was found to be 45.4 °C.

Consider “G384A-PSEN1 mutant γ-secretase complex (PSEN1/APH1A)”, for which the Tm (° C.) of Aβ42 generation (carboxypeptidase-like activity) in data set [1] amounted to 45.3 °C. In data set [2], the Tm (° C.) of Aβ38 generation (carboxypeptidase-like activity) turned out to be 44.2 °C. Also, in [3], the Tm (° C.) of AICD-3XFLAG production (endopeptidase activity) turned out to be 48.9 °C. Moreover, in data set [4], the Tm (° C.) of Aβ40 generation (carboxypeptidase-like activity) was found to be 44.2 °C.

In the case of “L166P-PSEN1 mutant γ-secretase complex (PSEN1/APH1A)”, the Tm (° C.) of Aβ42 generation (carboxypeptidase-like activity) in data set [1] came to 41 °C. The Tm (° C.) of Aβ38 generation (carboxypeptidase-like activity) in [2] was determined as 43.9 °C. For the same substance, the Tm (° C.) of AICD-3XFLAG production (endopeptidase activity) in data set [3] was found to be 48.5 °C. In data set [4], the Tm (° C.) of Aβ40 generation (carboxypeptidase-like activity) came to 41.9 °C.

On to “L435F-PSEN1 mutant γ-secretase complex (PSEN1/APH1A)”, for which the Tm (° C.) of AICD-3XFLAG production (endopeptidase activity) in data set [3] was 48.6 °C.

Turning to “M139V-PSEN1 mutant γ-secretase complex (PSEN1/APH1A)”, the Tm (° C.) of Aβ42 generation (carboxypeptidase-like activity) in [1] was determined as 47.9 °C. Besides, in [2], the Tm (° C.) of Aβ38 generation (carboxypeptidase-like activity) worked out at 44 °C. In [3], the Tm (° C.) of AICD-3XFLAG production (endopeptidase activity) is 54.2 °C. Also, the Tm (° C.) of Aβ40 generation (carboxypeptidase-like activity) in data set [4] was 46.2 °C.

As for “R278I-PSEN1 mutant γ-secretase complex (PSEN1/APH1A)”, the Tm (° C.) of AICD-3XFLAG production (endopeptidase activity) in data set [3] worked out at 52.4 °C.

Regarding “Y115H-PSEN1 mutant γ-secretase complex (PSEN1/APH1A)”, the Tm (° C.) of Aβ42 generation (carboxypeptidase-like activity) in data set [1] came to 47 °C. Also, the Tm (° C.) of Aβ38 generation (carboxypeptidase-like activity) in data set [2] was determined as 44.3 °C. Besides, the Tm (° C.) of AICD-3XFLAG production (endopeptidase activity) in data set [3] worked out at 53.4 °C. The Tm (° C.) of Aβ40 generation (carboxypeptidase-like activity) in data set [4] was 45.6 °C.

For “purified wild type human γ-secretase (PSEN1/APH1a)”, the Tm (° C.) of AICD-3XFLAG production (endopeptidase activity) in [5] was 59.8 °C. For the same substance, in data set [1], the Km, Aβ45 → Aβ42, 37° C. is 2.9 µM; the Km, Aβ45 → Aβ42, 45° C. turned out to be 1.7 µM; the Km, Aβ45 → Aβ42, 51° C. was 1.4 µM; the Tm (° C.) of Aβ42 generation (carboxypeptidase-like activity) was found to be 54.7 °C. For the same substance, the “optimum temperature of Aβ42 production, 95% CI” value in [1] is given as “Aβ42 (95% CI=43.9 to 46.4° C.)”. In data set [6], the Km, Aβ46 → Aβ43, 37° C. is 3.3 µM; the Km, Aβ46 → Aβ43, 51° C. is 2.3 µM; the “optimum temperature of Aβ43 production, 95% CI” value is given as “Aβ43 (95% CI=47.8 to 49.6° C.)”. Further, the “Tm of NICD production (ε-cleavage), 95% CI” value in data set [7] was 95% CI: 57.4° C-59.2 °C. Also, the Tm (° C.) of AICD-3XFLAG production (endopeptidase activity) in data set [3] turned out to be 61.1 °C. Also, the Tm (° C.) of AICD-3XFLAG production (endopeptidase activity) in data set [8] was 58 °C. Also, the Tm (° C.) of AICD-3XFLAG production (endopeptidase activity) in data set [9] is 55.4 °C. The Tm (° C.) of AICD-3XFLAG production (endopeptidase activity) in data set [10] worked out at 56.4 °C. In data set [4], the Tm (° C.) of Aβ40 generation (carboxypeptidase-like activity) was 50.4 °C; the “decrease of the conversion of Aβ43 to Aβ40 at 51° C. against 37° C.” value was “drastically decreases (˜82%) at 51 °C”; the “optimum temperature of Aβ40 production, 95% CI” value was “Aβ40 (95% CI=38.3 to 40.7° C.)”.
